In PubChem BioAssay (NCI):
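Briefly, cells in 96-well plates were exposed to five compound concentrations for 48 h, and endpoints were estimated by linear interpolation. GI50: concentration for 50% inhibition of growth. TGI marks complete inhibition of growth.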

Tests used:
Test in all cases: NCI tumour cell line growth inhibition, 48 h
MDA-N = tested on: MDA-N
CCRF-CEM leukemia = tested on: CCRF-CEM leukemia
RPMI-8226 leukemia = tested on: RPMI-8226 leukemia
RXF 393 renal = tested on: RXF 393 renal
OVCAR-4 ovarian = tested on: OVCAR-4 ovarian
HL-60(TB) leukemia = tested on: HL-60(TB) leukemia
NCI-H322M lung = tested on: NCI-H322M lung
SR leukemia = tested on: SR leukemia
DU-145 prostate = tested on: DU-145 prostate
SN12C renal = tested on: SN12C renal
SF-295 CNS = tested on: SF-295 CNS
HCT-15 colon = tested on: HCT-15 colon
A498 renal = tested on: A498 renal
PC-3 prostate = tested on: PC-3 prostate
SK-OV-3 ovarian = tested on: SK-OV-3 ovarian
TK-10 renal = tested on: TK-10 renal
OVCAR-3 ovarian = tested on: OVCAR-3 ovarian
SNB-75 CNS = tested on: SNB-75 CNS
T-47D breast = tested on: T-47D breast
EKVX NSCLC = tested on: EKVX NSCLC
BT-549 breast = tested on: BT-549 breast
NCI-H460 lung = tested on: NCI-H460 lung
HOP-92 NSCLC = tested on: HOP-92 NSCLC
COLO 205 colon = tested on: COLO 205 colon
MDA-MB-231 breast = tested on: MDA-MB-231 breast
SK-MEL-2 melanoma = tested on: SK-MEL-2 melanoma
U251 CNS = tested on: U251 CNS
MALME-3M melanoma = tested on: MALME-3M melanoma
KM12 colon = tested on: KM12 colon
ACHN renal = tested on: ACHN renal
M14 melanoma = tested on: M14 melanoma
SNB-19 CNS = tested on: SNB-19 CNS
A549 NSCLC = tested on: A549 NSCLC
MDA-MB-435 = tested on: MDA-MB-435
OVCAR-5 ovarian = tested on: OVCAR-5 ovarian
786-0 renal = tested on: 786-0 renal
LOX IMVI melanoma = tested on: LOX IMVI melanoma
SF-268 CNS = tested on: SF-268 CNS
HCT-116 colon = tested on: HCT-116 colon
SK-MEL-28 melanoma = tested on: SK-MEL-28 melanoma
SW-620 colon = tested on: SW-620 colon
SK-MEL-5 melanoma = tested on: SK-MEL-5 melanoma
K-562 leukemia = tested on: K-562 leukemia
NCI-H522 lung = tested on: NCI-H522 lung
OVCAR-8 ovarian = tested on: OVCAR-8 ovarian
CAKI-1 renal = tested on: CAKI-1 renal
HS 578T breast = tested on: HS 578T breast
HT29 colon = tested on: HT29 colon
SF-539 CNS = tested on: SF-539 CNS
IGROV1 ovarian = tested on: IGROV1 ovarian
NCI-H23 lung = tested on: NCI-H23 lung
MOLT-4 leukemia = tested on: MOLT-4 leukemia
NCI-H226 lung = tested on: NCI-H226 lung
HCC-2998 colon = tested on: HCC-2998 colon
UACC-257 melanoma = tested on: UACC-257 melanoma
NCI/ADR-RES ovarian = tested on: NCI/ADR-RES ovarian
UO-31 renal = tested on: UO-31 renal
MCF7 breast = tested on: MCF7 breast
HOP-62 NSCLC = tested on: HOP-62 NSCLC

CC1=CC2O[C@@H]3C[C@H]4OC(=O)CCCCC(C(C)O)OCC(O)C5(C)OC5C(=O)OCC2(C[C@H]1O)[C@]4(C)[C@@]31CO1 (some centres not stated)
GI50 (MDA-N): 1100 nM
TGI (MDA-N): 3360 nM
GI50 (CCRF-CEM leukemia): 484 nM
TGI (CCRF-CEM leukemia): 3040 nM
GI50 (RPMI-8226 leukemia): 1590 nM
TGI (RPMI-8226 leukemia): 2510 nM
GI50 (RXF 393 renal): 447 nM
TGI (RXF 393 renal): 2010 nM
GI50 (OVCAR-4 ovarian): 1900 nM
TGI (OVCAR-4 ovarian): 5760 nM
GI50 (HL-60(TB) leukemia): 87.9 nM
TGI (HL-60(TB) leukemia): 2050 nM
GI50 (NCI-H322M lung): > 10000 nM
TGI (NCI-H322M lung): > 10000 nM
TGI (SR leukemia): 654 nM
GI50 (DU-145 prostate): 2390 nM
TGI (DU-145 prostate): 6170 nM
GI50 (SN12C renal): 2170 nM
TGI (SN12C renal): 6400 nM
GI50 (SF-295 CNS): 2720 nM
TGI (SF-295 CNS): 6640 nM
GI50 (HCT-15 colon): 5180 nM
TGI (HCT-15 colon): > 10000 nM
GI50 (A498 renal): 1090 nM
TGI (A498 renal): 2710 nM
GI50 (PC-3 prostate): 2390 nM
TGI (PC-3 prostate): 5990 nM
GI50 (SK-OV-3 ovarian): 1890 nM
TGI (SK-OV-3 ovarian): 6730 nM
GI50 (TK-10 renal): 2850 nM
TGI (TK-10 renal): 8930 nM
GI50 (OVCAR-3 ovarian): 677 nM
TGI (OVCAR-3 ovarian): 2320 nM
GI50 (SNB-75 CNS): 714 nM
TGI (SNB-75 CNS): 2400 nM
GI50 (T-47D breast): 373 nM
TGI (T-47D breast): 3550 nM
GI50 (EKVX NSCLC): 5090 nM
TGI (EKVX NSCLC): > 10000 nM
GI50 (BT-549 breast): 2120 nM
TGI (BT-549 breast): 5610 nM
GI50 (NCI-H460 lung): 1020 nM
TGI (NCI-H460 lung): 3610 nM
GI50 (HOP-92 NSCLC): 484 nM
TGI (HOP-92 NSCLC): 1890 nM
GI50 (COLO 205 colon): 952 nM
TGI (COLO 205 colon): 2740 nM
GI50 (MDA-MB-231 breast): 4870 nM
TGI (MDA-MB-231 breast): > 10000 nM
GI50 (SK-MEL-2 melanoma): 516 nM
TGI (SK-MEL-2 melanoma): 2060 nM
GI50 (U251 CNS): 402 nM
TGI (U251 CNS): 2900 nM
GI50 (MALME-3M melanoma): 633 nM
TGI (MALME-3M melanoma): 2110 nM
GI50 (KM12 colon): 1150 nM
TGI (KM12 colon): 3560 nM
GI50 (ACHN renal): 3760 nM
TGI (ACHN renal): 7550 nM
GI50 (M14 melanoma): 1130 nM
TGI (M14 melanoma): 2760 nM
GI50 (SNB-19 CNS): 494 nM
TGI (SNB-19 CNS): 3640 nM
GI50 (A549 NSCLC): 3270 nM
TGI (A549 NSCLC): 9390 nM
GI50 (MDA-MB-435): 2150 nM
TGI (MDA-MB-435): 4590 nM
GI50 (OVCAR-5 ovarian): 3220 nM
TGI (OVCAR-5 ovarian): 7370 nM
GI50 (786-0 renal): 2010 nM
TGI (786-0 renal): 7470 nM
GI50 (LOX IMVI melanoma): 198 nM
TGI (LOX IMVI melanoma): 646 nM
GI50 (SF-268 CNS): 2440 nM
TGI (SF-268 CNS): 8410 nM
GI50 (HCT-116 colon): 1020 nM
TGI (HCT-116 colon): 3350 nM
GI50 (SK-MEL-28 melanoma): 513 nM
TGI (SK-MEL-28 melanoma): 1660 nM
GI50 (SW-620 colon): 2400 nM
TGI (SW-620 colon): 8910 nM
GI50 (SK-MEL-5 melanoma): 388 nM
TGI (SK-MEL-5 melanoma): 1280 nM
GI50 (K-562 leukemia): 531 nM
TGI (K-562 leukemia): 2580 nM
GI50 (NCI-H522 lung): 276 nM
TGI (NCI-H522 lung): 672 nM
GI50 (OVCAR-8 ovarian): 2830 nM
TGI (OVCAR-8 ovarian): 8300 nM
GI50 (CAKI-1 renal): 4810 nM
TGI (CAKI-1 renal): 8410 nM
GI50 (HS 578T breast): 1340 nM
TGI (HS 578T breast): 3690 nM
GI50 (HT29 colon): 2130 nM
TGI (HT29 colon): 5700 nM
GI50 (SF-539 CNS): 391 nM
TGI (SF-539 CNS): 1150 nM
GI50 (IGROV1 ovarian): 562 nM
TGI (IGROV1 ovarian): 2820 nM
GI50 (NCI-H23 lung): 1080 nM
TGI (NCI-H23 lung): 3750 nM
GI50 (MOLT-4 leukemia): 688 nM
TGI (MOLT-4 leukemia): 2590 nM
GI50 (NCI-H226 lung): 1600 nM
TGI (NCI-H226 lung): 4080 nM
GI50 (HCC-2998 colon): 618 nM
TGI (HCC-2998 colon): 2460 nM
GI50 (UACC-257 melanoma): 1720 nM
TGI (UACC-257 melanoma): 4430 nM
GI50 (NCI/ADR-RES ovarian): > 10000 nM
TGI (NCI/ADR-RES ovarian): > 10000 nM
GI50 (UO-31 renal): > 10000 nM
TGI (UO-31 renal): > 10000 nM
GI50 (MCF7 breast): 277 nM
TGI (MCF7 breast): 1920 nM
GI50 (HOP-62 NSCLC): 1690 nM
TGI (HOP-62 NSCLC): 6050 nM
